# Measured affinities in a library of Ab-91 heavy chain variants

Data: MIT Lincoln Laboratory AlphaSeq set, Engelhart et al. 2022, doi:10.1038/s41597-022-01779-4, as distributed in FLAb.

All variants were tested on one target, the spike HR2 peptide PDVDLGDISGINAS (SARS-CoV-2).

Each scFv is VL, three GGGGS repeats, VH, as in the parent Ab-91, and differs from it in the CDRs of the heavy chain only.
VL: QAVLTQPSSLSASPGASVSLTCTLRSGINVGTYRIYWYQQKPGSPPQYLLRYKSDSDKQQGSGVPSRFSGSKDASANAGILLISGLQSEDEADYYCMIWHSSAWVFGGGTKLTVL
VH: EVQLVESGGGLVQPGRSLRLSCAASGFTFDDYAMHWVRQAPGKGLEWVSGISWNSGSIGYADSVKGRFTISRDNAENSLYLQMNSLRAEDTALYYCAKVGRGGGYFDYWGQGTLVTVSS

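The starting antibody came from a phage panning campaign against this peptide. In library AAYL51, one, two or three CDR residues were substituted; doubles and triples were drawn at random. The scFvs were displayed on barcoded MATa yeast, the peptide on MATalpha yeast. The frequency of each diploid, read from paired DNA barcodes, reflects how well the two displayed proteins bind. Scores were corrected for input abundance and mapped to Kd with protein pairs of known affinity run in the same pool. The assay was run in three technical replicates.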

The parent's heavy chain CDRs are GFTFDDYAMH, GISWNSGSIGYADSVK, VGRGGGYFDY; each variant's own CDRs replace them letter for letter.
Numbers give log10(Kd / nM), so 0 is 1 nM and 3 is 1 µM. Smaller is tighter.
Averages over replicates are reported, and they cover detected replicates only.
"ND" marks a missing value. The strain was present, yet no cells mated with the target were sequenced in that replicate, which points to weak or no binding.
Entries are sorted by rising average, undetected variants last.
In this assay the parent's reference entry averaged 1.86; its copy inside this library read 0.88.
Empty control strains, which show no peptide, gave a signal in 21% of pairings with library AAYL51; the median was 4.54 and 95% of these signals were weaker than 3.26. No background was subtracted.

CDR-H1	CDR-H2	CDR-H3	replicates, log10 nM	log10 Kd (nM), mean
GFTFDDYAMH	GISWNSGSIGYATSVL	VGRGGGYFDY	2.76 2.82 2.39	2.66
VFTFDDYCMH	GISWNRGSIGYADSVK	VGRGGGYFDY	2.50 3.31 3.40	3.07
GFTFDDYAMH	GIQWNSGSIGYADSVK	VCRGGGYFCY	ND 3.40 3.03	3.22
GFTFPDYAMH	GISWNSGSIPYADSVK	VGRGGGYFDW	ND ND 3.44	3.44
GETFDDYAMH	GIIWNSGSIGYAISVK	VGRGGGYFDY	3.50 ND ND	3.50
GFTFDDYAMH	GISWNSGIIGYADSMK	VGRGGGYFIY	3.28 3.91 3.54	3.58
KFTFDDYAMH	GISWNSGSIGYARSVK	VGPGGGYFDY	3.26 4.08 3.82	3.72
GFTFDDYAMA	GISWNSGSIGYADSVK	VGRGGGYFDG	3.50 4.70 ND	4.10
GFKFDDYAMS	GWSWNSGSIGYADSVK	VGRGGGYFDY	4.81 ND 3.76	4.29
GFTFFDYAMH	GISWNSGSIGYADSWR	VGRGGGYFDY	ND ND 4.37	4.37
GFTFDDYAMH	GISWNSGSDVYADSYK	VGRGGGYFDY	ND 4.64 4.17	4.40
GFPFDDYAMH	GISWNSGSIGYWDSVK	VGRHGGYFDY	3.98 4.93 ND	4.46
GFTFDDYLMH	YIVWNSGSIGYADSVK	VGRGGGYFDY	4.85 4.61 4.03	4.50
GFTSDDYAMH	GISWNSGSPGYANSVK	VGRGGGYFDY	3.92 4.95 4.63	4.50
GFTFDDFAMH	GISWNSGHIGYHDSVK	VGRGGGYFDY	ND 4.61 ND	4.61
GFTFDDYAMH	GISWNSISIGYADSVK	VIRGGGYADY	4.64 ND ND	4.64
GFTFDDYFMH	GISWNSGSIGYAASVK	VGRYGGYFDY	ND 4.69 ND	4.69
GFTFDDYANH	GISWNSGSIGYADSVK	VGMGKGYFDY	4.82 ND 5.11	4.96
GFKFDDYAMH	GICWNSGSIGYADSKK	VGRGGGYFDY	4.50 5.53 5.01	5.01
GFTFDDYNMH	GISWNSGSHGYAYSVK	VGRGGGYFDY	4.17 5.93 ND	5.05
GFTFDDYAMH	GISWNSGSIGYADSVN	VGRCGGYFDY	ND 5.17 ND	5.17
GFTFDDYAMN	GISWNSGSIGYADSVK	VGRTGKYFDY	4.56 5.36 5.89	5.27
GFTFDDYAMH	GRSWMSGSIGYADSVK	VGRGGGYFDY	4.91 5.70 ND	5.31
TFKFDDYAMH	GISWRSGSIGYADSVK	VGRGGGYFDY	4.19 ND 6.42	5.31
GFTFDYYADH	GISWNSGSIGYADSVK	VGRGGGYFDY	ND 5.47 ND	5.47
GFTFDDYEMH	GISWNSGSIGYQDAVK	VGRGGGYFDY	5.51 ND ND	5.51
GCTFDDYAMH	GISWNSGSIGYADSVK	VGFGGGYFSY	ND 5.98 ND	5.98
GFTFDDGCMH	GISWNSGSIGYADSVK	VGRGGYYFDY	ND 6.25 ND	6.25
GMTFDDYAMH	GISWNSGSIWYADSVK	VGRGGGYFDY	ND ND ND	ND
GFTFDDYAMH	GISWNSCSAGYADSVK	VGRGPGYFDY	ND ND ND	ND
NFTFDDYAMH	GISWNWGSWGYADSVK	VGRGGGYFDY	ND ND ND	ND
GFTFDDYAMH	GISWNSGSILYADSVK	VGRGGGVFDY	ND ND ND	ND
GFTFDDTAMH	GISWNSGSIGYADSMK	VGRGGGYFNY	ND ND ND	ND
GFTFDDYAMH	GISPNSHSIGYACSVK	VGRGGGYFDY	ND ND ND	ND
GRTFDDYAMH	GISWNSGSIGYADSVK	MWRGGGYFDY	ND ND ND	ND
GFTFDDYAMH	MISWNSGSIGYADSVK	VGRKVGYFDY	ND ND ND	ND
GFTFDDYAMH	GISWNSGSIDYADSVK	VGRGTGYMDY	ND ND ND	ND
GFTFDDYAMH	GISWYSGTIGYRDSVK	VGRGGGYFDY	ND ND ND	ND
GFTFDDYAMH	GRSWNSGDIGYADSVK	VGRGGCYFDY	ND ND ND	ND
GFTFDDYAMH	GCSWNSGSILYADSVK	VGRGGGYFDY	ND ND ND	ND
GFTFDDYAMH	GISWFSGSIGYADSVF	VGRGGGYFDL	ND ND ND	ND
GFTFDPYAMH	CISWWSGSIGYADSVK	VGRGGGYFDY	ND ND ND	ND
GFTFDHYAMH	GISWNSGSIGYADSKR	VGRGGGYFDY	ND ND ND	ND
GLTFDDYAMH	GISWVSGSIGYADSVK	VARGGGYFDY	ND ND ND	ND
GFTFDDYAMH	SISWNSGSIGYADSVK	VGIGGGYFHY	ND ND ND	ND
GFTFDDYAMH	GISWNSGSIGYCDSQK	VGRQGGYFDY	ND ND ND	ND
GFDFDDYAMH	GIAENSGSIGYADSVK	VGRGGGYFDY	ND ND ND	ND

The first 5 variants above that were never detected:

| CDR-H1 | CDR-H2 | CDR-H3 | replicates, log10 nM | log10 Kd (nM), mean |
|---|---|---|---|---|
| GMTFDDYAMH | GISWNSGSIWYADSVK | VGRGGGYFDY | ND ND ND | ND |
| GFTFDDYAMH | GISWNSCSAGYADSVK | VGRGPGYFDY | ND ND ND | ND |
| NFTFDDYAMH | GISWNWGSWGYADSVK | VGRGGGYFDY | ND ND ND | ND |
| GFTFDDYAMH | GISWNSGSILYADSVK | VGRGGGVFDY | ND ND ND | ND |
| GFTFDDTAMH | GISWNSGSIGYADSMK | VGRGGGYFNY | ND ND ND | ND |